In PubChem BioAssay AID720509 (The Scripps Research Institute Molecular Screening Center, 2013):
Only a part is listed here, and it is no random draw. Activity calls are given as the source filed them.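 How the source made its calls: active means inhibition above a per-campaign cutoff: mean of compounds within control limits plus 3 SD (cut at about 15% in these data); inactive means the rest.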

Sequences of proteins named here, by UniProt entry; tags and fusion partners are left off. A change or cut given only in a name is not applied to a line headed by its entry.
UniProt P02675: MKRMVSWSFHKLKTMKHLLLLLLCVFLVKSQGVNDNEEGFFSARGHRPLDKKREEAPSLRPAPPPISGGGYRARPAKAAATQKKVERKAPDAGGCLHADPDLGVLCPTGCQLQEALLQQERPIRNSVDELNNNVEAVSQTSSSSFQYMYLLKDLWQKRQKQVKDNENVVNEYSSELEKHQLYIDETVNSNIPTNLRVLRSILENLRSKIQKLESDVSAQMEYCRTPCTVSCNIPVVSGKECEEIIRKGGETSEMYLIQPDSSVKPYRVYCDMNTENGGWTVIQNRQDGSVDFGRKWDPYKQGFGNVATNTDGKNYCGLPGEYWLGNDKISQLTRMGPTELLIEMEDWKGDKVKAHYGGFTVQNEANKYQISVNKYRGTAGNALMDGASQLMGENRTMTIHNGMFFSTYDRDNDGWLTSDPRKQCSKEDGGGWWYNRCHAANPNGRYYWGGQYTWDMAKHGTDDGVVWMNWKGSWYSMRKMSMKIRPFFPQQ

Each molecule was assayed against Fibrinogen beta chain (Homo sapiens) (UniProt P02675) (assay: inhibitors of Tn6 peptide binding to fibrin DD(E), primary screen, biochemical, fluorescence polarization, human fibrin, Tn6 probe (AID 720509;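 further: 0% = median of all compound wells on the plate and 100% = blocking peptide control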)). Conditions: Fibrin DD(E) TRITC-Tn6 fluorescence polarization displacement; at 8.3 µM; stronger effect = higher value.
In the case of `Cc1ccc(OCC(=O)OC2CN3CCC2CC3)cc1` (stereo not drawn), the inhibition is reported as inactive: -0.22%. `O=[As](O)(c1cccs1)c1cccs1` was tested, and the inhibition was inactive: 8.2%. For `O=P1(Nc2ccc(Br)cn2)COc2ccccc2OC1`, the inhibition was inactive: -0.43%. In the case of `NS(=O)(=O)c1cccc(NC(=O)COC(=O)C(O)(c2ccccc2)c2ccccc2)c1`, the inhibition is reported as inactive: -5.75%. `Nc1cccc([As](=O)(O)c2ccccc2)c1` was tested, and the inhibition was inactive: -2.98%. For `CC1CCC(C(C)C)C(OP(=O)(Nc2ccccn2)c2ccccc2)C1` (stereo not drawn), the inhibition was inactive: 0.13%. For `Cc1ccc(C(=O)OC2CN3CCC2CC3)cc1` (stereo not drawn), the inhibition was inactive: 2%. In the case of `Cc1nn(-c2ccccc2)c2c1P(=O)(N1CCOCC1)N(C)C(c1ccccc1)=N2` (stereo not drawn), the inhibition is reported as inactive: 2.76%. With `CCCC1OP(=O)(Nc2ccccc2)OCC1CC` (stereo not drawn) the inhibition was inactive: -3.2%. `O=C(/C=C/c1ccccc1)OC1CN2CCC1CC2` (stereo not drawn) was tested, and the inhibition was inactive: 0.88%. `CN(C)C1(CNC(=O)c2ccc(S(C)(=O)=O)cc2)CCCCC1` was tested, and the inhibition was inactive: -11.7%. With `NC(=O)Nc1ccc([As](=O)(O)O)cc1` the inhibition was inactive: 4.4%. For `CN(C(=O)Cc1ccc(Cl)c(Cl)c1)[C@H]1CC[C@@]2(CCCO2)C[C@@H]1N1CCCC1`, the inhibition was inactive: 4.91%. For `O=[N+]([O-])c1ccc2c(c1)nnn2O`, the inhibition was inactive: -7.05%. `CN(C)C(=O)c1cc([N+](=O)[O-])cc2c1-c1c(cc([N+](=O)[O-])cc1[N+](=O)[O-])C2=O` was tested, and the inhibition was inactive: -1.55%. `CCOP1(=S)c2c(C)nn(CCC#N)c2N=C(c2ccc(F)cc2)N1C` (stereo not drawn) was tested, and the inhibition was inactive: 5.5%. In the case of `CN(C(=O)Cc1ccccc1)[C@@H]1CC[C@]2(CCCO2)C[C@H]1N1CCCC1`, the inhibition is reported as inactive: -2.61%. With `N#CCCN(C(=O)COC(=O)C(O)(c1ccccc1)c1ccccc1)c1ccc(F)cc1` the inhibition was inactive: -2.66%. In the case of `O=P(Nc1nccs1)(Oc1ccccc1)Oc1ccccc1`, the inhibition is reported as inactive: 3.55%. For `CCOP1(=S)c2c(C)nn(CCC#N)c2N=C(c2ccccc2F)N1C` (stereo not drawn), the inhibition was inactive: 8.29%. For `Nc1ccccc1[As](=O)(O)c1ccccc1`, the inhibition was inactive: 4.62%. With `O=C(O)COc1ccc([As](=O)(O)O)cc1[N+](=O)[O-]` the inhibition was inactive: -3.59%. With `CCCOP(=S)(Nc1nc(N)cc(=O)[nH]1)OCCC` the inhibition was inactive: 2.53%. In the case of `Cc1ccc(NCCc2c([N+](=O)[O-])cc([N+](=O)[O-])cc2[N+](=O)[O-])cc1`, the inhibition is reported as inactive: 6.89%. In the case of `Nc1cccc2c([As](=O)(O)O)cccc12`, the inhibition is reported as active: 26.9%. With `CCOP(=O)(Nc1cccc2ccccc12)OCC` the inhibition was inactive: 2.42%. In the case of `COc1cc(C2NCCC3(OCCO3)C2(C)C)cc(OC)c1OC` (stereo not drawn), the inhibition is reported as inactive: 3.81%. In the case of `CS(=O)(=O)c1ccc(Cl)c(NC(=O)COC(=O)C(O)(c2ccccc2)c2ccccc2)c1`, the inhibition is reported as inactive: -5.57%. In the case of `O=[As](O)(O)c1cccnc1`, the inhibition is reported as inactive: -3.52%. With `COc1cc(C(=O)NCC2(N3CCOCC3)CCCCC2)cc(Cl)c1OC(C)C` the inhibition was inactive: -7.37%. `O=C(OC1CN2CCC1CC2)c1ccc(Cl)cc1` (stereo not drawn) was tested, and the inhibition was inactive: 4.08%. For `Cc1cccc(OCC(=O)OC2CN3CCC2CC3)c1` (stereo not drawn), the inhibition was inactive: -5.47%. For `O=[As](O)(c1cccc(O)c1)c1cccc(O)c1`, the inhibition was inactive: -8.86%. With `COc1ccc(N/C(=N/P(=O)(N2CCOCC2)N2CCOCC2)N2CCOCC2)cc1` the inhibition was inactive: -1.04%. For `O=[N+]([O-])c1cc(Oc2ccc([N+](=O)[O-])cc2C(F)(F)F)cc([N+](=O)[O-])c1`, the inhibition was inactive: -0.79%. For `Cc1cc(=O)[nH]c(N[N+](=O)[O-])n1`, the inhibition was inactive: -8.85%. For `O=C(OC1CN2CCC1CC2)C12CC3CC(CC(C3)C1)C2` (stereo not drawn), the inhibition was inactive: -9.52%. With `Cc1c2c(nc3ccccc13)SC(C(Cl)Cl)C2` (stereo not drawn) the inhibition was inactive: 10.6%. With `COc1cc(I)ccc1[As](=O)(O)O` the inhibition was inactive: -0.25%. In the case of `COc1ccc2nc(NP(=O)(c3ccccc3)c3ccccc3)sc2c1`, the inhibition is reported as inactive: 6.77%. With `O=P1(N(CCCl)CCCl)OCCCN1CCCl` (stereo not drawn) the inhibition was inactive: -11.1%. With `O=P1(N(CCCl)CCCl)Nc2ccccc2N1` the inhibition was inactive: -0.55%. For `COC(=O)C1(C)COP(=O)(N2CCCCCC2)OC1` (stereo not drawn), the inhibition was inactive: 1.32%. In the case of `CC(C)c1ccc(OP(=O)(Nc2ccccn2)Oc2ccccc2F)cc1` (stereo not drawn), the inhibition is reported as inactive: -4.75%. `ClCCSc1nnc(-c2cccnc2)o1` was tested, and the inhibition was inactive: -4.01%. With `CC(C)NC(=O)NP(=O)(Oc1ccccc1)Oc1ccccc1` the inhibition was inactive: 5.69%. `CCN(CC)C(=S)SC(NC=O)C(Cl)(Cl)Cl` (stereo not drawn) was tested, and the inhibition was inactive: -0.33%. For `O=C(OC1CN2CCC1CC2)c1cccc2[nH]cnc12` (stereo not drawn), the inhibition was inactive: -4.75%. `O=[N+]([O-])c1ccc(-c2cc([N+](=O)[O-])c(O)c([N+](=O)[O-])c2)cc1` was tested, and the inhibition was inactive: -9.63%. `COc1cc(C(=O)NCC2(N3CCOCC3)CCCCC2)ccc1OCC(C)C` was tested, and the inhibition was inactive: 2.17%. In the case of `O=[As](O)(c1ccc(O)cc1)c1ccccc1O`, the inhibition is reported as inactive: -0.88%. `C[As](=O)(O)c1cccc(C(=O)O)c1` was tested, and the inhibition was inactive: 10.3%. With `Cc1ccc2nc3c(c(C)c2c1)CC(C(Cl)Cl)S3` (stereo not drawn) the inhibition was inactive: 2.09%. For `[N-]=[N+]=NC1CCCCC1NC(=O)c1cc([N+](=O)[O-])cc([N+](=O)[O-])c1` (stereo not drawn), the inhibition was inactive: 6.93%. `Cc1ccc(OP(=O)(Nc2ccc([N+](=O)[O-])cn2)Oc2ccc(C)cc2)cc1` was tested, and the inhibition was inactive: 2.05%. `CCOC(=O)Nc1cccc([As](=O)(O)O)c1` was tested, and the inhibition was inactive: -0.45%. `O=[N+]([O-])c1ccc(Nc2ccc(Oc3ccc([N+](=O)[O-])cc3[N+](=O)[O-])cc2)c([N+](=O)[O-])c1` was tested, and the inhibition was inactive: 4.27%. With `O=P(Nc1ccccn1)(c1cccc2ccccc12)c1cccc2ccccc12` the inhibition was inactive: 4.49%. In the case of `Cc1cc(SC(NC=O)C(Cl)(Cl)Cl)ncn1` (stereo not drawn), the inhibition is reported as inactive: 1.99%. In the case of `CC1CCNP(=O)(N(CCCl)CCCl)O1` (stereo not drawn), the inhibition is reported as inactive: -5.94%. With `CCOC(=O)Nc1ccc([As](=O)(O)O)c(O)c1` the inhibition was inactive: -0.56%. In the case of `O=C(O)C(O)c1ccc(N(CCCl)CCCl)cc1` (stereo not drawn), the inhibition is reported as inactive: -5.77%. With `Cc1cc(SC(NC(=O)c2ccccc2)C(Cl)(Cl)Cl)nc(C(C)C)n1` (stereo not drawn) the inhibition was inactive: -6.4%. For `CCCCOc1ccc(C(=O)NCC2(N3CCCCC3)CCCCC2)cc1OC`, the inhibition was inactive: 8.54%. In the case of `COP(=O)(OC)N1CC1c1ccccc1` (stereo not drawn), the inhibition is reported as inactive: 4.99%. In the case of `CCOC(=O)c1ccc(NC(=O)C(C)(CCl)SC)cc1` (stereo not drawn), the inhibition is reported as inactive: -0.93%. `O=C(OC1CN2CCC1CC2)c1cccc([N+](=O)[O-])c1` (stereo not drawn) was tested, and the inhibition was inactive: -6.85%. For `CCC(C)N(CC(C)C)C(=S)SC(NC(C)=O)C(Cl)(Cl)Cl` (stereo not drawn), the inhibition was inactive: 5.79%. In the case of `COC(=O)C1(C)COP(=O)(N2CCCC2)OC1` (stereo not drawn), the inhibition is reported as inactive: 3.73%. For `COP1(=S)c2c(C)nn(CCC#N)c2N=C(c2ccc(F)cc2)N1C` (stereo not drawn), the inhibition was inactive: 2.47%. In the case of `O=C(Nc1ccncc1[N+](=O)[O-])c1ccc([N+](=O)[O-])cc1[N+](=O)[O-]`, the inhibition is reported as inactive: 1.83%. `O=C(COc1ccccc1)OC1CN2CCC1CC2` (stereo not drawn) was tested, and the inhibition was inactive: 2.77%. For `O=C(O)C(=O)c1ccc(N(CCCl)CCCl)cc1`, the inhibition was inactive: -2.4%.
